From patent publication US9662390B2, “Use of opioid antagonists to attenuate endothelial cell proliferation and migration” (THE UNIVERSITY OF CHICAGO, priority 2005, dated 2017)

Test system: Human Microvascular Endothelial Cells (HMVEC)
Assay type: cell-based

Row | Structure (SMILES) | morphine concentration as low as which endothelial cell migration is induced | morphine concentration that causes endothelial cell migration | antagonist dose as low as which morphine-based migration was attenuated
1 | CN1CC[C@]23c4c5ccc(O)c4O[C@H]2[C@@H](O)C=C[C@H]3[C@H]1C5 [morphine] | 10^−7 M | 100 ng/mL | –
2 | C[N+]1(CC2CC2)CCC23c4c5ccc(O)c4OC2C(=O)CCC3(O)C1C5 (stereo not drawn) [MNTX, N-methylnaltrexone] | – | – | 10^−8 μM
